Our source for the IC50 values is US10106526B2, “Inhibitors of cyclin-dependent kinase 7 (CDK7)” (SYROS PHARMACEUTICALS, INC., priority 2014, dated 2018).

Protein sequences, listed by entry. Tags and fused reporters are not part of them.
UniProt P50613, whole entry: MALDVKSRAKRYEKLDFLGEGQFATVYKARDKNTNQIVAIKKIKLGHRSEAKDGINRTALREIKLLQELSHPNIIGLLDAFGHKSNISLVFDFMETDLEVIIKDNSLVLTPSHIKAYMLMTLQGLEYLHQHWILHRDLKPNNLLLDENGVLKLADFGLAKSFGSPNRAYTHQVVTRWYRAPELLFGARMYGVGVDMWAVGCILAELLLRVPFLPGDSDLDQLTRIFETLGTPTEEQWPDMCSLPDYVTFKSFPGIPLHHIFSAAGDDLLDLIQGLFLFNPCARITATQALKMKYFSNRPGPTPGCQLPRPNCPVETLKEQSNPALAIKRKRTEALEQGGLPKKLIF
UniProt P51948, whole entry partner: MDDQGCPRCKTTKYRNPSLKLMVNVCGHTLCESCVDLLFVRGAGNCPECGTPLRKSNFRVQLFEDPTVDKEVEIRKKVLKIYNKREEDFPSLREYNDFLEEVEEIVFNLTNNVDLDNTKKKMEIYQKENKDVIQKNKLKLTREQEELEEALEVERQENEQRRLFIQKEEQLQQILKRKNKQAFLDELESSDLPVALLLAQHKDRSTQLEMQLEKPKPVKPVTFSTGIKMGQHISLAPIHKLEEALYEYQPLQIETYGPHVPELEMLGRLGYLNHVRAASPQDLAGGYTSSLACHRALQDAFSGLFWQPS
UniProt P51946, whole entry partner: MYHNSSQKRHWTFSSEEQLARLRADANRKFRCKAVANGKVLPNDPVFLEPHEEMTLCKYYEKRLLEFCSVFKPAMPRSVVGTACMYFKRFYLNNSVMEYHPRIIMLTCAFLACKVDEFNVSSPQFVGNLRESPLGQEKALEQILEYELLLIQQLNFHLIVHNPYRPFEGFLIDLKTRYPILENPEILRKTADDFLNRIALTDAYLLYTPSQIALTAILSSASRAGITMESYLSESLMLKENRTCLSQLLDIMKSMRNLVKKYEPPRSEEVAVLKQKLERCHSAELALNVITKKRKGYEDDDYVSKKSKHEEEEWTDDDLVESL

The structures appear in SMILES notation.

Assay [1] concerns the target CDK7/Cyclin H/MAT1 trimeric complex (Homo sapiens, UniProt P50613). The assay is described as follows: CDK7 kinase assay, Caliper/LabChip EZ Reader (Biortus Biosciences). The conditions noted are these: read-out: CDK7 Inhibition (IC50), CDK7/Cyclin H/MAT1 10 nM, ATP 2 mM, FAM-CDK7tide 2 μM, 30 min incubation.
A further assay has as its system A673 cells. The assay is described as follows: Inhibition of proliferation of A673 cells (CyQUANT, 72 hour). The conditions noted are these: read-out: A673 IC50, 72 hour proliferation. As for the experimental part: A673 cells are a cell line derived from human muscle Ewing's sarcoma. Representative compounds of the invention were tested at different concentrations (from 4 μM to 126.4 pM; 0.5 log serial dilutions) for their ability to inhibit the proliferation of A673 cells. Known CDK inhibitors flavopiridol and triptolide were used as positive controls. Cells were grown in Dulbecco's Modified Eagle's Medium, +10% FBS+1 mM Sodium Pyruvate. The cells were cultured at 37° C. in a humidified chamber in the presence of 5% CO2. Proliferation assays were conducted over a 72 hour time period. CyQUANT® (Life Technologies, Chicago, Ill. USA) was used to assess the anti-proliferative effects of the compounds following manufacturer's directions and utilizing the reagents supplied with the CyQUANT® kit. In this table, “A” represents an IC50 of less than 500 nM; “B” an IC50 of between 500 nM and 5 μM; and “C” an IC50 of greater than 5 μM.

With `C=CC(=O)N1CCC(N(C)C[C@H]2CCC[C@@H](Nc3ncc(Cl)c(-c4c[nH]c5ccccc45)n3)C2)CC1`, the IC50 is less than 100 nM in assay [1] and less than 500 nM in the assay on A673 cells.
For `C=CC(=O)N1CCN([C@H]2CCC[C@@H](Nc3ncc(Cl)c(-c4cn(C)c5ccccc45)n3)C2)CC1` the same measures were 100 to 1000 nM and less than 500 nM.
In the case of `C=CC(=O)N1CCC(CN[C@]2(C)CCC[C@H](Nc3ncc(Cl)c(-c4cnn5ccccc45)n3)C2)CC1`, the figures for the IC50 (in assay [1]; in the assay with A673 cells) were 100 to 1000 nM and less than 500 nM, respectively.
Take `CN(C)C/C=C/C(=O)N1CC2(CCN([C@H]3CCC[C@@H](Nc4ncc(Cl)c(-c5c[nH]c6ccccc56)n4)C3)C2)C1`: the IC50 in assay [1] is 100 to 1000 nM; in the assay on A673 cells, less than 500 nM.
Consider `C=CC(=O)N1CC2(CCN([C@@H]3CCC[C@@H](Nc4ncc(Cl)c(-c5c[nH]c6ccccc56)n4)C3)C2)C1`, for which the IC50 in assay [1] was less than 100 nM; in the assay with A673 cells it was less than 500 nM.
The corresponding values for `CN(C)C/C=C/C(=O)NCC1CN([C@@H]2CCC[C@@H](Nc3ncc(Cl)c(-c4c[nH]c5ccccc45)n3)C2)CCO1` (stereo partly shown) are 100 to 1000 nM and less than 500 nM.
For `C=CC(=O)N1CCC2(CC1)CN([C@H]1CCC[C@@H](Nc3ncc(Cl)c(-c4c[nH]c5ccccc45)n3)C1)C2`, the values for the IC50 (in assay [1]; in the assay with A673 cells) were 100 to 1000 nM and less than 500 nM, respectively.
On to `C=CC(=O)N1CCN2C[C@@H](Nc3ncc(Cl)c(-c4c[nH]c5ccccc45)n3)C[C@H]2C1`, for which the IC50 in assay [1] is 100 to 1000 nM; with A673 cells, less than 500 nM.
For `C=CC(=O)Nc1cnn([C@H]2CCC[C@@H](Nc3ncc(Cl)c(-c4c[nH]c5ccccc45)n3)C2)c1` the same measures were less than 100 nM and less than 500 nM.
For `C=CC(=O)N1CCC(OC[C@H]2CCC[C@@H](Nc3ncc(Cl)c(-c4c[nH]c5ccccc45)n3)C2)CC1` the same measures were 100 to 1000 nM and less than 500 nM.
Consider `CN(C)C/C=C/C(=O)N1CCN([C@@H]2CCC[C@@H](Nc3ncc(Cl)c(-c4c[nH]c5ccccc45)n3)C2)CC1C(F)(F)F` (stereo partly shown), for which the IC50 was 100 to 1000 nM in assay [1] and less than 500 nM with A673 cells.
With `C=CC(=O)N1CCC(C(=O)N[C@H]2CCC[C@@H](Nc3ncc(CC)c(-c4c[nH]c5ccccc45)n3)C2)CC1`, the IC50 in assay [1] was less than 100 nM; in the assay on A673 cells it was less than 500 nM.
For `CN(C)C/C=C/C(=O)N1CCC(CN[C@H]2CCC[C@@H](Nc3ncc(C(F)(F)F)c(-c4c[nH]c5ccccc45)n3)C2)C1` (stereo partly shown) the same measures were less than 100 nM and less than 500 nM.
With `CN(C)C/C=C/C(=O)N1CCN([C@H]2CCC[C@@H](Nc3ncc(Cl)c(-c4csc5ccccc45)n3)C2)CC1`, the figures for the IC50 (in assay [1]; with A673 cells) were 100 to 1000 nM and less than 500 nM, respectively.
For `C/C=C/C(=O)N1CCN(C2CCC[C@@H](Nc3ncc(Cl)c(-c4c[nH]c5ccccc45)n3)C2)CC1` (stereo partly shown) the same measures were less than 100 nM and less than 500 nM.
For `C=CC(=O)N1CCC(CN[C@H]2CCC[C@@H](Nc3ncc(Cl)c(-c4n[nH]c5ccccc45)n3)C2)CC1`, the IC50 is 100 to 1000 nM in assay [1] and less than 500 nM with A673 cells.
For `C=CC(=O)NC[C@H]1C[C@H]1C(=O)N[C@H]1CCC[C@@H](Nc2ncc(Cl)c(-c3c[nH]c4ccccc34)n2)C1` the same measures were less than 100 nM and less than 500 nM.
For `C=CC(=O)N1CCC(F)(CN[C@H]2CCC[C@@H](Nc3ncc(Cl)c(-c4c[nH]c5ccccc45)n3)C2)CC1` the same measures were less than 100 nM and less than 500 nM.
The corresponding values for `C=CC(=O)N1CCN([C@H]2CCC[C@@H](Nc3ncc(Cl)c(-n4cnc5ccccc54)n3)C2)CC1` are 100 to 1000 nM and less than 500 nM.
As to `CN(C)C/C=C/C(=O)N1CCCN([C@H]2CCC[C@@H](Nc3ncc(Cl)c(-c4c[nH]c5ccccc45)n3)C2)CC1`, the IC50 in assay [1] is less than 100 nM; with A673 cells, less than 500 nM.
The corresponding values for `CN(C)C/C=C/C(=O)N1CCC2(C1)CN([C@@H]1CCC[C@@H](Nc3ncc(Cl)c(-c4c[nH]c5ccccc45)n3)C1)C2` are less than 100 nM and less than 500 nM.
In the case of `CCc1cnc(N[C@@H]2CCC[C@H](NCC3CCN(C(=O)/C=C/CN(C)C)C3)C2)nc1-c1c[nH]c2ccccc12` (stereo partly shown), the results for the IC50 (in assay [1]; with A673 cells) were less than 100 nM and 500 to 5000 nM, respectively.
In the case of `C/C=C/C(=O)N1CCC(CN[C@H]2CCC[C@@H](Nc3ncc(Cl)c(-c4c[nH]c5ccccc45)n3)C2)CC1`, the IC50 is 100 to 1000 nM in assay [1] and less than 500 nM in the assay on A673 cells.
For `C=CC(=O)N1CCN([C@@]2(C)CCC[C@@H](Nc3ncc(Cl)c(-c4c[nH]c5ccccc45)n3)C2)CC1` the same measures were less than 100 nM and less than 500 nM.
For `CN(C)C/C=C/C(=O)Nc1cnc(CN[C@H]2CCC[C@@H](Nc3ncc(Cl)c(-c4c[nH]c5ccccc45)n3)C2)nc1` the same measures were less than 100 nM and less than 500 nM.
For `C=CC(=O)N1CCC(N2CCC[C@@H](Nc3ncc(Cl)c(-c4c[nH]c5ccccc45)n3)C2)CC1` the same measures were less than 100 nM and less than 500 nM.
For the compound `C=CC(=O)N1CCC(CN[C@H]2CCC[C@@H](Nc3ncc(Cl)c(-c4cnn5ccccc45)n3)C2)C1` (stereo partly shown), the values for the IC50 (in assay [1]; in the assay on A673 cells) were 100 to 1000 nM and less than 500 nM, respectively.
The corresponding values for `C=CC(=O)Nc1ccc2c(c1)CCN(C1CCCC(Nc3ncc(Cl)c(-c4c[nH]c5ccccc45)n3)C1)C2=O` (stereo not shown) are 100 to 1000 nM and less than 500 nM.
The corresponding values for `C=CC(=O)N1CCC(CN[C@@H]2CC[C@H](Nc3ncc(Cl)c(-c4c[nH]c5ccccc45)n3)C2)CC1` are 100 to 1000 nM and 500 to 5000 nM.
The corresponding values for `C=CC(=O)Nc1cnc(CN[C@H]2CCC[C@@H](Nc3ncc(Cl)c(-c4c[nH]c5ccccc45)n3)C2)nc1` are less than 100 nM and less than 500 nM.
For the compound `C=CC(=O)N1CCC(CN[C@H]2CCC[C@@H](Nc3ncc(Cl)c(-c4n[nH]c5ccccc45)n3)C2)C1` (stereo partly shown), the IC50 in assay [1] was 100 to 1000 nM; in the assay on A673 cells, less than 500 nM.
The corresponding values for `C=CC(=O)N1CCCC(N[C@H]2CCC[C@@H](Nc3ncc(Cl)c(-c4c[nH]c5ccccc45)n3)C2)C1` (stereo partly shown) are less than 100 nM and less than 500 nM.
Take `C=CC(=O)N1CCN([C@H]2CCC[C@@H](Nc3ncc(CC)c(-c4c[nH]c5ccccc45)n3)C2)CC1`: the figures for the IC50 (in assay [1]; with A673 cells) were less than 100 nM and less than 500 nM, respectively.
For the compound `C=CC(=O)N1CCC(CN[C@H]2CCC[C@@H](Nc3ncc(C(F)(F)F)c(-c4c[nH]c5ccccc45)n3)C2)CC1`, the IC50 in assay [1] is less than 100 nM; in the assay on A673 cells, less than 500 nM.
As to `CN(C)C/C=C/C(=O)N1CCN([C@H]2CCC[C@@H](Nc3ncc(Cl)c(-n4cnc5ccccc54)n3)C2)CC1`, the IC50 in assay [1] is 100 to 1000 nM; in the assay on A673 cells, less than 500 nM.
The corresponding values for `CN(C)C/C=C/C(=O)N1CCC2(CC1)CC(CN[C@H]1CCC[C@@H](Nc3ncc(Cl)c(-c4c[nH]c5ccccc45)n3)C1)C2` are less than 100 nM and less than 500 nM.
The corresponding values for `C=CC(=O)N1CCN([C@H]2CCC[C@@H](Nc3ncc(Cl)c(-c4c[nH]c5ccccc45)n3)C2)CC1C(F)(F)F` (stereo partly shown) are 100 to 1000 nM and less than 500 nM.
For `C=CC(=O)N1CCN(C2CCC[C@@H](Nc3ncc(Cl)c(-c4c[nH]c5ccccc45)n3)C2)[C@H](C)C1` (stereo partly shown) the same measures were less than 100 nM and less than 500 nM.
For the compound `C=CC(=O)N1Cc2cn([C@H]3CCC[C@@H](Nc4ncc(Cl)c(-c5c[nH]c6ccccc56)n4)C3)nc2C1`, the IC50 is 100 to 1000 nM in assay [1] and less than 500 nM with A673 cells.
The corresponding values for `CN(C)C/C=C/C(=O)N1CCN([C@H]2CCC[C@@H](Nc3ncc(Cl)c(-c4nsc5ccccc45)n3)C2)CC1` are 100 to 1000 nM and more than 5000 nM.
For `C/C=C/C(=O)N1CCN([C@H]2CCC[C@@H](Nc3ncc(Cl)c(-c4c[nH]c5ccccc45)n3)C2)CC1` the same measures were 100 to 1000 nM and less than 500 nM.
The corresponding values for `C=CC(=O)N[C@H]1CCCN([C@H]2CCC[C@@H](Nc3ncc(Cl)c(-c4c[nH]c5ccccc45)n3)C2)C1` are less than 100 nM and less than 500 nM.
With `Cc1cccc2c(-c3nc(N[C@@H]4CCC[C@H](N5CCN(C(=O)/C=C/CN(C)C)CC5)C4)ncc3Cl)c[nH]c12`, the IC50 was less than 100 nM in assay [1] and less than 500 nM in the assay with A673 cells.
For the compound `C=CC(=O)N1CCC(N(CC)C[C@H]2CCC[C@@H](Nc3ncc(Cl)c(-c4c[nH]c5ccccc45)n3)C2)CC1`, the IC50 is less than 100 nM in assay [1] and less than 500 nM with A673 cells.
For `C=CC(=O)N1CCN([C@H]2CCC[C@@H](Nc3ncc(Cl)c(-c4csc5ccccc45)n3)C2)CC1` the same measures were 100 to 1000 nM and less than 500 nM.
For `C=CC(=O)NC[C@H]1C[C@@H]1C(=O)N[C@H]1CCC[C@@H](Nc2ncc(Cl)c(-c3c[nH]c4ccccc34)n2)C1` the same measures were less than 100 nM and less than 500 nM.
The corresponding values for `C=CC(=O)N1CCN([C@H]2CCC[C@@H](Nc3ncc(Cl)c(-c4c[nH]c5c(C)cccc45)n3)C2)CC1` are less than 100 nM and less than 500 nM.
In the case of `C=CC(=O)N1CCN([C@@H]2CC[C@H](Nc3ncc(Cl)c(-c4c[nH]c5ccccc45)n3)C2)CC1`, the IC50 is less than 100 nM in assay [1] and less than 500 nM in the assay on A673 cells.
For `CN(C)C/C=C/C(=O)N1CCC2(CC1)CN([C@H]1CCC[C@@H](Nc3ncc(Cl)c(-c4c[nH]c5ccccc45)n3)C1)C2` the same measures were less than 100 nM and less than 500 nM.
Turning to `CN(C)C/C=C/C(=O)N1CCC2(CC1)CN([C@@H]1CCC[C@@H](Nc3ncc(Cl)c(-c4c[nH]c5ccccc45)n3)C1)C2`, the IC50 in assay [1] is less than 100 nM; in the assay with A673 cells, less than 500 nM.
